Assay: Storage stability (Pass/Fail) of base liquid detergent formulation with 9.5% EMES plus candidate hydrotrope
Type: physicochemical
[1] = material 3.00 % w/v in base detergent with 9.5% EMES
[2] = material 4.00 % w/v in base detergent with 9.5% EMES
[3] = material 5.00 % w/v in base detergent with 9.5% EMES

## OCCN(CCO)CCO
[1]
  40° F. storage: Fail
  105° F. storage: Pass
  125° F. storage: Pass
  Freeze/Thaw storage: Pass
  Room Temp. storage: Pass
[2]
  40° F. storage: Fail
  105° F. storage: Pass
  125° F. storage: Pass
  Freeze/Thaw storage: Pass
  Room Temp. storage: Pass
[3]
  40° F. storage: Fail
  105° F. storage: Pass
  125° F. storage: Pass
  Freeze/Thaw storage: Pass
  Room Temp. storage: Pass

Source: US9222059B2, “Cleaning formulations with improved surfactant solubility and methods of production and use thereof” (The Sun Products Corporation, priority 2011, dated 2015)
